Laboratory results reported in ChEMBL document CHEMBL5053550, “LipE guided discovery of isopropylphenyl pyridazines as pantothenate kinase modulators” (Bioorg Med Chem, 2021).

Sequences of proteins named here, by UniProt entry; tags and fusion partners are left off. A change or cut given only in a name is not applied to a line headed by its entry.
UniProt Q9H999: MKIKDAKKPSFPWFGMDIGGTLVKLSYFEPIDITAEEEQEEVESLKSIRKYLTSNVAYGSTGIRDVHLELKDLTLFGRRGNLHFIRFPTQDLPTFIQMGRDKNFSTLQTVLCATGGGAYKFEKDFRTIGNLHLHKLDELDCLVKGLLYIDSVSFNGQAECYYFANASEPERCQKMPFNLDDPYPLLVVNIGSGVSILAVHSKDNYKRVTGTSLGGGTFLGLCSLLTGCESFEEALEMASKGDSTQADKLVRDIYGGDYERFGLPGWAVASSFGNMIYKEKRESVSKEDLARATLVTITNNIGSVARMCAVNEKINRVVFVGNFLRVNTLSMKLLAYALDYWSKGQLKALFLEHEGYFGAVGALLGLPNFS

Target: Pantothenate kinase 3 (Homo sapiens, UniProt Q9H999)

Row | Structure (SMILES) | IC50
1 | CC(C)(C)c1ccc(NC(=O)N2CCN(c3ccc(C#N)cn3)CC2)cc1 | 510 nM
2 | CC(C)c1ccc(CC(=O)N2CCN(c3ccc(C#N)cn3)CC2)cc1 | 60 nM
3 | CC(C)(C)c1ccc(CC(=O)N2CCN(c3ccc(C#N)cn3)CC2)cc1 | 60 nM
4 | CC(C)c1ccc(CC(=O)N2CCN(c3cnc(Cl)cn3)CC2)cc1 | 1.8 nM

The remaining molecules from weak to strong by IC50, led by results:

Row | IC50 | Structure (SMILES)
5 | 29 nM | CC(C)c1ccc(NC(=O)N2CCN(c3cnc(C#N)cn3)CC2)cc1
6 | 20 nM | CC(C)c1ccc(NC(=O)N2CCN(c3ccc([N+](=O)[O-])cn3)CC2)cc1
7 | 10 nM | CC(C)c1ccc(OC(=O)N2CCN(c3ccc(C#N)nn3)CC2)cc1
8 | 10 nM | CC(C)c1ccc(CC(=O)N2CCN(c3cnc(C#N)nc3)CC2)cc1
9 | 4 nM | CC(C)c1ccc(NC(=O)N2CCN(c3ccc(C#N)nn3)CC2)cc1
10 | 0.7 nM | CC(C)c1ccc(NC(=O)N2CCN(c3ccc(Cl)nn3)CC2)cc1
